Test [1] deals with Sodium-dependent dopamine transporter (Homo sapiens) (UniProt Q01959). Kind of test: Inhibition of DAT receptor (unknown origin) at 100 nM.
Test [2] has as its target Sodium-dependent serotonin transporter (Homo sapiens) (UniProt P31645). Kind of test: Inhibition of SERT receptor (unknown origin) at 100 nM.
Test [3] has as its target Sodium-dependent dopamine transporter (Homo sapiens) (UniProt Q01959). The experiment in a line: Displacement of [3H]BTCP from recombinant human DAT receptor expressed in CHO cells at 10 uM incubated for 120 mins by scintillation counting method. The class given is cell-based. In a few lines: (§1)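 Radioligand displacement run by a commercial provider, with test compound at 10 μM. Reported as mean ± SD of two independent measurements, each in duplicate.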

The chains behind the UniProt entries cited, without tags or fusion partners.
UniProt Q01959, whole entry: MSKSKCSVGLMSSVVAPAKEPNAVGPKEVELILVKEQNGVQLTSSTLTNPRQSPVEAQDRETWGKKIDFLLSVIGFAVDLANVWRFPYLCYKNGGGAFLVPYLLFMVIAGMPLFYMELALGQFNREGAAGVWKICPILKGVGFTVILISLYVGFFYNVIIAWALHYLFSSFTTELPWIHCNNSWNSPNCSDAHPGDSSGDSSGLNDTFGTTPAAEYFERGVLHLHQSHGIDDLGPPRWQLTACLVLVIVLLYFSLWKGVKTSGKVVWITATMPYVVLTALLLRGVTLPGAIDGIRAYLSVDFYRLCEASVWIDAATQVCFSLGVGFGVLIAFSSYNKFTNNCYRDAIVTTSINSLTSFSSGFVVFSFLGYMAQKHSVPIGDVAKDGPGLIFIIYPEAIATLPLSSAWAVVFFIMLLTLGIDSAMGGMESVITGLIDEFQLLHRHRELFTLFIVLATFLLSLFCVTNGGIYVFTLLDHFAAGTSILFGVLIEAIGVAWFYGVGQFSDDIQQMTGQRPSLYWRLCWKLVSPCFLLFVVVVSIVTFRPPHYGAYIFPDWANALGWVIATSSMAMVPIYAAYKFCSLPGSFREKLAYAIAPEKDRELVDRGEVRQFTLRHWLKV
UniProt P31645, whole entry, looked up: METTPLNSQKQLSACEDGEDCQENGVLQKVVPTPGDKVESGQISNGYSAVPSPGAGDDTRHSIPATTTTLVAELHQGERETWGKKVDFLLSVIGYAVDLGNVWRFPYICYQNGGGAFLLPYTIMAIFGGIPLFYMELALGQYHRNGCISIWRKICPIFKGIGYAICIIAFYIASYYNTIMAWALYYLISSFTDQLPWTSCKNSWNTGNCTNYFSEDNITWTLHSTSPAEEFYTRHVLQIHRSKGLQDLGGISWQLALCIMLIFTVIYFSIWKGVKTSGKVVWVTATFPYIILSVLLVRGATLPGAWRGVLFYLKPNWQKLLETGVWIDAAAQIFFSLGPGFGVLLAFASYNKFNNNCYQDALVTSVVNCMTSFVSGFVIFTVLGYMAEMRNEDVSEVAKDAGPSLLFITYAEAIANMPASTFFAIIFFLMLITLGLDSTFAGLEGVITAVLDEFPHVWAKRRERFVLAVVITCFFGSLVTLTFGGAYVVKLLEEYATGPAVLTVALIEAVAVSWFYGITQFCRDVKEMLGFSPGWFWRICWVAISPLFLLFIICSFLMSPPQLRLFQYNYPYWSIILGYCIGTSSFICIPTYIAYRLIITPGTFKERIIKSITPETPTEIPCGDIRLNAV

For test [4], the target named is Sodium-dependent serotonin transporter (Homo sapiens) (UniProt P31645). Kind of test: Displacement of [3H]imipramine from recombinant human SERT receptor expressed in CHO cells at 10 uM incubated for 60 mins by scintillation counting method. The class given is cell-based. In a few lines:
as §1

Structures are written as SMILES. The source made the active and inactive calls. No cut-off for these calls is given here.

Consider `c1ccc(CN2CCCC[C@H]3NCC[C@H]32)cc1`, for which the inhibition entry in test [1] and in test [2] was “Active” in each case.
As to `c1ccc(CN2CCCC[C@@H]3NCC[C@H]32)cc1`, the result in test [3] and in test [4] was Active.
For `c1ccc(CN2CCCCC3NCCC32)cc1` (racemic), the result in test [3] and in test [4] was Active.

The values above are taken from ChEMBL document CHEMBL6134899 (J Med Chem, 2025).
